Values quoted from earlier work as cited in patent publication US20160073662A1, “PRESERVATIVE AND ADDITIVE FOR FOOD AND FEED” (priority 2014, published 2016).

Details: rat, in vivo; cited from earlier work

In the case of calcium montmorillonite clay, the “major organs, serum biochemistry, micronutrient levels” value is given as “no changes”.
